{"source": "patent EP0998946A1", "about": "“Non-porphyrin compound for use as a diagnosticum and/or pharmaceutical” (K.U. LEUVEN RESEARCH & DEVELOPMENT, priority 1998, dated 2000)", "key": {"mice": {"system": "mice", "assay": "Acute lethal toxicity (LD50) in mice"}, "rats": {"system": "rats", "assay": "Acute lethal toxicity (LD50) in rats"}}, "data": [{"substance": "N,N'-Bis(diethylenetriamino penta-acetato)-4,4'-methylene bis(3-hydroxy-2-naphthalene carboxylic hydrazide), Gd-complex, sodium salt [ECIII-60]", "values": [{"measurement": "Interpolated LD50 (mmol/kg)", "setting": "mice; interpolated over the mice and rats dose groups, printed in the last (mice) line", "result": "(2.5 +5.0)/2 =3.8 mmol/kg0"}, {"measurement": "acute lethal toxicity (LD50)", "setting": "mice; mice", "result": "about 3.8 mmol/kg"}, {"measurement": "acute lethal toxicity (LD50)", "setting": "rats", "result": "about 3.8 mmol/kg"}]}]}
